From ChEMBL document CHEMBL6109139, “Rational Design of the First Dual Agonist at Trace Amine-Associated Receptor 1 and 5-HT2C Receptors Based on Binding Pocket Similarity for the Treatment of Schizophrenia and Alzheimer's Disease-Related Psychosis” (J Med Chem, 2025)
Positions count from the first letter of the chain named. Active and inactive are the calls of the source.

Key:
Format in all cases: cell-based
[1] = tested on: T1, Trace amine-associated receptor 1 (Homo sapiens), Q96RJ0 [D103A]; assay: Agonist activity at TAAR1 D103A mutant (unknown origin) expressed in HEK293 cells assessed as increase in cAMP accumulation by Glosensor-based cAMP assay
T1 sequence (whole entry): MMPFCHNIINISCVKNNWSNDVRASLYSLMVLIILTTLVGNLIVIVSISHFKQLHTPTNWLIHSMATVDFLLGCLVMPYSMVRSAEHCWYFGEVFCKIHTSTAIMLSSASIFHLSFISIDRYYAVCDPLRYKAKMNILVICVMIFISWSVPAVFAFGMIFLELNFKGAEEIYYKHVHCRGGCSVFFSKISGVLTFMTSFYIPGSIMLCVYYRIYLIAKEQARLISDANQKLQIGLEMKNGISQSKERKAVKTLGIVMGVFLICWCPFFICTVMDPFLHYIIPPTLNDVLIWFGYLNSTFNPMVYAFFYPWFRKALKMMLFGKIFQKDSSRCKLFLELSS

[2] = tested on: T2, Trace amine-associated receptor 1 (Homo sapiens), Q96RJ0 [W264A]; assay: Agonist activity at TAAR1 W264A mutant (unknown origin) expressed in HEK293 cells assessed as increase in cAMP accumulation by Glosensor-based cAMP assay
T2 sequence (whole entry): T1 sequence (whole entry) with A103D, W264A

[3] = tested on: T3, Trace amine-associated receptor 1 (Homo sapiens), Q96RJ0 [Y294A]; assay: Agonist activity at TAAR1 Y294A mutant (unknown origin) expressed in HEK293 cells assessed as increase in cAMP accumulation by Glosensor-based cAMP assay
T3 sequence (whole entry): T1 sequence (whole entry) with A103D, Y294A

[4] = tested on: T4, Trace amine-associated receptor 1 (Homo sapiens), Q96RJ0 [F186A]; assay: Agonist activity at TAAR1 F186A mutant (unknown origin) expressed in HEK293 cells assessed as increase in cAMP accumulation by Glosensor-based cAMP assay
T4 sequence (whole entry): T1 sequence (whole entry) with A103D, F186A

[5] = tested on: T5, Trace amine-associated receptor 1 (Homo sapiens), Q96RJ0 [I290A]; assay: Agonist activity at TAAR1 I290A mutant (unknown origin) expressed in HEK293 cells assessed as increase in cAMP accumulation by Glosensor-based cAMP assay
T5 sequence (whole entry): T1 sequence (whole entry) with A103D, I290A

[6] = tested on: T6, Trace amine-associated receptor 1 (Homo sapiens), Q96RJ0 [V184A]; assay: Agonist activity at TAAR1 V184A mutant (unknown origin) expressed in HEK293 cells assessed as increase in cAMP accumulation by Glosensor-based cAMP assay
T6 sequence (whole entry): T1 sequence (whole entry) with A103D, V184A

Measured: Activity

c1cc2c(s1)[C@@H]1CNCCN1CC2
inactive: all assays above
